Earlier results in patent US20240002438A1, “MELANOCORTIN LIGANDS AND METHODS OF USE THEREOF” (REGENTS OF THE UNIVERSITY OF MINNESOTA, priority 2021, published 2024).

By UniProt entry, the sequences of proteins in these tests, tags left out. Where a name states a change or a piece, a line headed by the entry shows the natural chain unless it says otherwise.
UniProt P33032: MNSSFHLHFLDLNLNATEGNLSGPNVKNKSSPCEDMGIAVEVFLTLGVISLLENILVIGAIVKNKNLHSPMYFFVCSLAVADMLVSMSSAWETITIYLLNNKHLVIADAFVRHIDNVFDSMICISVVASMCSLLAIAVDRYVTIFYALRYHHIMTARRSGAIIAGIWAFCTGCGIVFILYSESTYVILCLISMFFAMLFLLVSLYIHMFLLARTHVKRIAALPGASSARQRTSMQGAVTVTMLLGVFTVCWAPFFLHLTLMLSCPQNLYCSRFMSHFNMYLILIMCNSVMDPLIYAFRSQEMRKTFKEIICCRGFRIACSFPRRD

Target: MC5R (Homo sapiens, UniProt P33032)
Conditions: Grieco 2002; cited from earlier work

Ac-Nle-c[Asp-Pro-DNal(2′)-Arg-Trp-Lys]-NH2 [PG901]
agonist potency at the hMC5R: sub-nanomolar
